Tested on: lung cancer cells of the Egfr gene mutation-positive lung cancer-carrying mouse (C57BL/6/EgfrdelE748-A752)
Assay: Experiment 1: subcutaneous tumor model, Gefitinib in combination with intratumoral Ad-SGE-REIC
Set-up: species or system mouse (C57BL/6J)
Details: in vivo
Experimental: Full-length complementary DNA of the human REIC/Dkk-3 gene was integrated into a cosmid vector pAxCAwt, and the vector was then transferred into an adenovirus vector in accordance with the COS-TPC method (Takara Bio, Shiga, Japan). Subsequently, 3 enhancers; i.e., hTERT, SV40, and CMV, were added to a site downstream of the poly A sequence of the inserted REIC/Dkk-3 gene to obtain an adenovirus vector comprising the REIC/Dkk-3 gene introduced thereinto (Ad-REIC). As a control vector, an adenovirus vector comprising the LacZ gene introduced thereinto (Ad-LacZ) was used.
A subcutaneous tumor model was prepared by transplanting lung cancer cells of the Egfr gene mutation-positive lung cancer-carrying mouse (C57BL/6/EgfrdelE748-A752) (Ohash K. et al., Cancer Sci., 99, 1747, 2008) subcutaneously into both back regions of C57BL/6J (Higo, H. et al., Lung Cancer., 136, 86, 2019). When the tumor volume reached approximately 100 to 150 mm^3, the four experiments described below were performed (FIG. 1).
Gefitinib (50 mg/kg/day) was administered orally for consecutive 14 days, Ad-SGE-REIC* (1.0 × 10^9 ifu/day, days 1, 4, 7, 15, and 18) was selectively administered intratumorally on one side, and anti-tumor effects were evaluated (FIG. 1A). […]

Q: For `COc1cc2ncnc(Nc3ccc(F)c(Cl)c3)c2cc1OCCCN1CCOCC1` [Gefitinib], which “growth of tumors on the both sides” value is on record?
A: suppressed

Q: And the “tumor regrowth upon termination of administration” value?
A: tumor regrowth was observed

— US20230310653A1, “THERAPEUTIC AGENT FOR EGFR GENE MUTATION-POSITIVE LUNG CANCER COMPRISING REIC/Dkk-3 GENE” (Momotaro-Gene Inc., priority 2020, published 2023)
